Results reported in article PMC9699089 (Pathogens, 2022).

Key:
[1] = test system: Plasmodium falciparum CQ-resistant strain W2; test: In vitro antiplasmodial activity, SYBR Green I fluorescence-based method, strain W2; assay type: cell-based; details: SI = CC50 HepG2 / IC50 P. falciparum W2
Procedure: (§1) The in vitro antiplasmodial activities were tested over concentrations ranging from 39 nM to 40 µM against culture-adapted Plasmodium falciparum reference strains 3D7 and W2. […] These two strains are obtained from the collection of the National Museum of Natural History (Paris, France). The parasites were cultivated in RPMI medium (Sigma Aldrich, Lyon, France) supplemented with 0.5% Albumax I (Life Technologies Corporation, Paisley, UK), hypoxanthine (Sigma Aldrich), and gentamicin (Sigma Aldrich) with human erythrocytes and were incubated at 37 °C in a candle jar, as described previously. The P. falciparum drug susceptibility test was carried out in 96-well flat bottom sterile plates in a final volume of 250 µL. After 48 h incubation period with the drugs, quantities of DNA in treated and control cultures of parasites in human erythrocytes were quantified using the SYBR Green I (Sigma Aldrich) fluorescence-based method. Briefly, after incubation, plates were frozen at -20 °C until use. Plates were then thawed for 2 h at room temperature, and 100 µL of each homogenized culture was transferred to a well of a 96-well flat bottom sterile black plate (Nunc, Inc.) that contained 100 µL of the SYBR Green I lysis buffer (2xSYBR Green, 20 mM Tris base pH 7.5, 5 mM EDTA, 0.008% w/v saponin, 0.08% w/v Triton X-100). […] Plates were incubated for 1 h at room temperature and then read on a fluorescence plate reader (Tecan, Austria) using excitation and emission wavelengths of 485 and 535 nm, respectively.

[2] = test system: Plasmodium falciparum CQ-sensitive strain 3D7; test: In vitro antiplasmodial activity, SYBR Green I fluorescence-based method, strain 3D7; assay type: cell-based; details: SI = CC50 HepG2 / IC50 P. falciparum 3D7
Procedure: as §1

[3] = test system: T. brucei brucei AnTat 1.9; test: In vitro antitrypanosomal activity, Alamar Blue assay; assay type: cell-based; details: SI = CC50 HepG2 / IC50 Trypanosoma brucei brucei
Procedure: The effects of the tested compounds on the growth of T. brucei brucei were assessed using an Alamar Blue® assay described by Räz et al. T. brucei brucei AnTat 1.9 ([…], Belgium) was cultured in MEM with Earle's salts, supplemented according to the protocol of Baltz et al. […] All doses were tested in duplicate. Appropriate controls treated with solvents 0.9% NaCl or DMSO or with suramin, pentamidine, eflornithine, and fexinidazole (reference drugs purchased from Sigma Aldrich and Fluorochem, UK) were added to each set of experiments. After 69 h incubation period at 37 °C, 10 μL of the viability marker Alamar Blue (Fisher) was added to each well, and the plates were incubated for 5 h. The plates were read in a PerkinElmer ENSPIRE (Germany) microplate reader using an excitation wavelength of 530 nm and an emission wavelength of 590 nm.

[4] = Cytotoxicity evaluation, MTT assay; assay type: cell-based; details: human
Procedure: These cells are a commonly used human hepatocarcinoma-derived cell line that has characteristics similar to those of primary hepatocytes. These cells express many hepatocyte-specific metabolic enzymes, thus enabling the cytotoxicity of tested product metabolites to be evaluated. […] Duplicate assays were performed for each sample. Each well was microscopically examined for precipitate formation before the medium was aspirated from the wells. After aspiration, 100 µL of MTT solution (0.5 mg/mL in medium without FCS) were then added to each well. […] The MTT solution was removed, and DMSO (100 µL) was added to dissolve the resulting blue formazan crystals. Plates were shaken vigorously (300 rpm) for 5 min. The absorbance was measured at 570 nm with 630 nm as reference wavelength in a BIO-TEK ELx808 Absorbance Microplate Reader. DMSO was used as blank and doxorubicin (Sigma Aldrich) as positive control. Cell viability was calculated as percentage of control (cells incubated without compound). The CC50 was determined from the dose-response curve using TableCurve 2D V5.0 software (Systat Software, Palo Alto, CA, USA).

[5] = test system: L. donovani (MHOM/IN/00/DEVI) promastigotes; test: In vitro antileishmanial activity on promastigotes, MTT assay; assay type: cell-based, Leishmania donovani; details: SI = CC50 HepG2 / IC50 L. donovani
Procedure: L. donovani (MHOM/IN/00/DEVI) used in this study was provided by the CNR Leishmania (Montpellier, France). The effects of the tested compounds on the growth of L. donovani (MHOM/IN/00/DEVI) promastigotes were assessed by MTT assay. Briefly, promastigotes in log-phase in Schneider’s medium supplemented with 20% fetal calf serum (FCS), 2 mM L-glutamine and antibiotics (100 U/mL penicillin and 100 µg/mL streptomycin), were incubated at an average density of 10^6 parasites/mL in sterile 96-well plates with various concentrations of compounds previously dissolved in DMSO (final concentration less than 0.5% v/v), in duplicate. Appropriate controls treated with DMSO, pentamidine, and amphotericin B (reference drugs purchased from Sigma Aldrich) were added to each set of experiments. Duplicate assays were performed for each sample. After the 72 h incubation period at 27 °C, parasite metabolic activity was determined. Each well was microscopically examined for precipitate formation. To each well was added 10 µL of 10 mg/mL MTT [3-(4,5-dimethylthiazol-2-yl)-2,5-diphenyltetrazolium bromide)] solution followed by 4 h incubation time. The enzyme reaction was stopped by addition of 100 µL of 50% isopropanol/10% sodium dodecyl sulfate. Plates were vigorously shaken (300 rpm) for 10 min, and the absorbance was measured at 570 nm with 630 nm as reference wavelength in a BIOTEK ELx808 Absorbance Microplate Reader (Agilent Technologies, Les Ulis, France). […] IC50 of the parasite’s growth (half maximal inhibitory concentration or IC50 values) were then calculated from the obtained experimental results using a previously described regression program. IC50 values were calculated from three independent experiments.

SMILES | Selectivity Index HepG2/W2 [1] | Selectivity Index HepG2/3D7 [2] | Selectivity Index HepG2/Tryp. [3] | CC50 at 72 h [4] | Selectivity Index HepG2/L. donovani [5]
CN(C)CCNCc1cc(-c2ccccc2)c2ccc3c(-c4ccccc4)cc(CNCCN(C)C)nc3c2n1 [Compound 1a, 2,9-Bis[(2-dimethylaminoethyl)aminomethyl]-4,7-diphenyl-1,10-phenanthroline] | 6.52 | 3.62 | 9.73 | 6.52 ± 0.61 µM | –
CN(C)CCCNCc1cc(-c2ccccc2)c2ccc3c(-c4ccccc4)cc(CNCCCN(C)C)nc3c2n1 [Compound 1b, 2,9-Bis[(3-dimethylaminopropyl)aminomethyl]-4,7-diphenyl-1,10-phenanthroline] | 0.97 | 0.28 | 10.46 | – | –
CN(C)CCCCNCc1cc(-c2ccccc2)c2ccc3c(-c4ccccc4)cc(CNCCCCN(C)C)nc3c2n1 [Compound 1c, 2,9-Bis[(4-dimethylaminobutyl)aminomethyl]-4,7-diphenyl-1,10-phenanthroline] | 347.67 | 1.01 | 12.13 | – | –
CN(C)CCCCCNCc1cc(-c2ccccc2)c2ccc3c(-c4ccccc4)cc(CNCCCCCN(C)C)nc3c2n1 [Compound 1d, 2,9-Bis[(5-dimethylaminopentyl)aminomethyl]-4,7-diphenyl-1,10-phenanthroline] | 0.95 | 0.70 | 2.36 | – | –
CN1CCN(CCNCc2cc(-c3ccccc3)c3ccc4c(-c5ccccc5)cc(CNCCN5CCN(C)CC5)nc4c3n2)CC1 [Compound 1e] | 11.46 | 4.88 | 23.42 | – | –
CN1CCN(CCCNCc2cc(-c3ccccc3)c3ccc4c(-c5ccccc5)cc(CNCCCN5CCN(C)CC5)nc4c3n2)CC1 [Compound 1f] | 0.76 | 0.40 | 8.89 | – | –
CN1CCN(CCCCNCc2cc(-c3ccccc3)c3ccc4c(-c5ccccc5)cc(CNCCCCN5CCN(C)CC5)nc4c3n2)CC1 [Compound 1g] | 6.75 | 2.04 | 17.45 | – | –
c1ccc(-c2cc(CNCCN3CCOCC3)nc3c2ccc2c(-c4ccccc4)cc(CNCCN4CCOCC4)nc23)cc1 [Compound 1h] | 34.64 | 8.79 | 26.77 | – | 1.31
c1ccc(-c2cc(CNCCCN3CCOCC3)nc3c2ccc2c(-c4ccccc4)cc(CNCCCN4CCOCC4)nc23)cc1 [Compound 1i] | 157.25 | 4.34 | 21.69 | – | –
c1ccc(-c2cc(CNCCN3CCCCC3)nc3c2ccc2c(-c4ccccc4)cc(CNCCN4CCCCC4)nc23)cc1 [Compound 1j] | 0.63 | 1.03 | 8.20 | – | 0.65
c1ccc(-c2cc(CNCCCN3CCCCC3)nc3c2ccc2c(-c4ccccc4)cc(CNCCCN4CCCCC4)nc23)cc1 [Compound 1k] | 2.60 | 1.35 | 5.57 | – | –
c1ccc(-c2cc(CNCCCN3CCCC3)nc3c2ccc2c(-c4ccccc4)cc(CNCCCN4CCCC4)nc23)cc1 [Compound 1l] | 505.7 | 1.53 | 13.42 | – | –
c1ccc(-c2cc(CNCCc3ccccn3)nc3c2ccc2c(-c4ccccc4)cc(CNCCc4ccccn4)nc23)cc1 [Compound 1m] | 62.0 | 9.23 | 6.89 | – | –
c1ccc(-c2cc(CNCCc3cccnc3)nc3c2ccc2c(-c4ccccc4)cc(CNCCc4cccnc4)nc23)cc1 [Compound 1n] | 1.22 | 4.37 | 7.21 | – | 1.16
c1ccc(-c2cc(CNCCc3ccncc3)nc3c2ccc2c(-c4ccccc4)cc(CNCCc4ccncc4)nc23)cc1 [Compound 1o] | 10.22 | 26.18 | 91.0 | – | 7.10
c1ccc(-c2cc(CNCCCc3ccncc3)nc3c2ccc2c(-c4ccccc4)cc(CNCCCc4ccncc4)nc23)cc1 [Compound 1p] | 20.97 | 2.98 | 4.68 | – | –
